Assay: Serum stability test
Assay type: in vitro ADME
Details: diluted human serum (25%), 37 °C, 50 µM peptide, reversed-phase HPLC C18, 214 nm

For `CC[C@H](C)[C@H](NC(=O)[C@@H](NC(=O)[C@@H]1CCCN1C(=O)[C@H](Cc1c[nH]cn1)NC(=O)[C@@H]1CCCN1C(=O)CN)C(C)C)C(=O)N[C@H](C(=O)N[C@H](C(=O)N[C@H](C(=O)NCC(=O)N1CCC[C@H]1C(=O)N[C@@H](Cc1c[nH]cn1)C(=O)N[C@@H](CCC(=O)O)C(=O)N[C@@H](CCC(=O)O)C(N)=O)[C@@H](C)O)[C@@H](C)CC)C(C)C` [VIVIT], which “time to complete degradation in serum” value is on record?
Its value is 6 h.

Reference: article PMC4174996 (Journal of Medicinal Chemistry, 2014)
